Values of other authors as cited in patent US20240342233A1, “Herbal composition for prostate health and prostate cancer prevention” (priority 2022, published 2024).

Details: peripheral neuropathy, gastric symptoms, liver, kidney and heart problems, alopecia

With `[Se]` [Selenium] as the compound, how does the toxic dose read?
Its toxic dose is “over 400 mcg”.
